Results reported in PMC3723878 (PLoS ONE, 2013).

Target: T1, α1A-AR (Homo sapiens, UniProt P35348)
T1 sequence (P35348 1-466): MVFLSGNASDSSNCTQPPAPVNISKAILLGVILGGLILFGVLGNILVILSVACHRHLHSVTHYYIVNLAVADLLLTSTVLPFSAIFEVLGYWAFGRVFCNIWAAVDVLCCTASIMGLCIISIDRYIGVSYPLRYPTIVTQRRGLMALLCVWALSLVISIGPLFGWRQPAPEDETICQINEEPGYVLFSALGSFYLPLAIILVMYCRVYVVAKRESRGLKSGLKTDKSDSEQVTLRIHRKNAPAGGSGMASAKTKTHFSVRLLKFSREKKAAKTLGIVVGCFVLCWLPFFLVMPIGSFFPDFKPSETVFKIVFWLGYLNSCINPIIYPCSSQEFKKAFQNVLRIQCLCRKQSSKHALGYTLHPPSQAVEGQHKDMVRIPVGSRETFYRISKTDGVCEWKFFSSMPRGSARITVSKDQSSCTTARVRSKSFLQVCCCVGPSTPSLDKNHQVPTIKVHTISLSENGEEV
Assay type: binding
Parameters: expressed in transfected cells; host or cells: COS-7, transient (calcium phosphate)
Procedure: Binding experiments were performed in a 100 µL reaction mix at room temperature in buffer composed of 50 mM Tris-HCl, pH 7.4, 10 mM MgCl2, 1 g/L BSA. Reactions were stopped by filtration through 96 GF/C filter plates pre-incubated with 0.5% polyethylenimine.
Binding data were analyzed by nonlinear regression using the KaleidaGraph 4.0 software (Synergy software, Reading, PA). pKD values and Bmax (number of binding sites) were determined by applying a nonlinear regression to data obtained with saturation binding assays. The nonlinear regression used was BS = (Bmax*A)/KD+A, where BS is the specific binding, Bmax the number of binding sites, A the concentration of radioligand, and KD the dissociation constant of the radioligand. Data resulting from competition binding assays were analyzed using the Hill equation for IC50 and curve slope estimations. […] The linear curves were analyzed with IC50 = Ki+(L/KD)*Ki. Dissociation kinetics were analyzed using a simple equation of exponential decay BS * exp (-Koff*t), where BS is the specific binding at time zero and Koff is the dissociation rate constant. Results are expressed as mean ± s.e. mean from n independent experiments. One-way Anova test was used to compare values. A p<0.05 was accepted for statistical significance.

COc1cc2nc(N3CCN(C(=O)c4ccco4)CC3)nc(N)c2cc1OC [3H-prazosin]
^3H-prazosin dissociation rate: 0.05 ± 0.01 min⁻¹
